Measured values published in ChEMBL document CHEMBL3392991, “Structure-based design of bacterial nitric oxide synthase inhibitors” (J Med Chem, 2015).

Tested on: Bacillus subtilis
Test: Displacement of imidazole from Bacillus subtilis NOS in presence of 50 uM H4B

Q: `N=C(NCCC[C@H](N)C(=O)O)N[N+](=O)[O-]` was tested. Which Ks did it give?
A: 4.4 µM
